Literature values, collected in US8097625B2, “Combination of sedative and a neurotransmitter modulator, and methods for improving sleep quality and treating depression” (priority 2003, dated 2012).

The chains behind the UniProt entries cited, without tags or fusion partners.
UniProt P23975, whole entry: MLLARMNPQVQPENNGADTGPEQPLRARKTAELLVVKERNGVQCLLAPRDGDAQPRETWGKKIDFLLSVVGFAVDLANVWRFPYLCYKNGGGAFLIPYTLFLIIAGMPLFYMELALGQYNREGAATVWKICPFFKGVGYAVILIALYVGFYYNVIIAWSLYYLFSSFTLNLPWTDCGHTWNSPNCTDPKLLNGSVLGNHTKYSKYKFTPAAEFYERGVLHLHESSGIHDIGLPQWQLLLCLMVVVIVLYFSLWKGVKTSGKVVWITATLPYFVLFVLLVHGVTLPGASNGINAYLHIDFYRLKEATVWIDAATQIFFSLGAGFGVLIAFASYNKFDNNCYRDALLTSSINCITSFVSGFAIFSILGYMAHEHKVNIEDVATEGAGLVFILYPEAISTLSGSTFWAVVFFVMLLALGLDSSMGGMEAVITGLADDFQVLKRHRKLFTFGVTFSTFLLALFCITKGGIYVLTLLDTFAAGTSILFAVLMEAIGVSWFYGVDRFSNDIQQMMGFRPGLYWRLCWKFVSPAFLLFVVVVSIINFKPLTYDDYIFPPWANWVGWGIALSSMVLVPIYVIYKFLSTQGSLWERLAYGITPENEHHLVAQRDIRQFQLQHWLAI

Biological target: norepinephrine transporter (Homo sapiens, UniProt P23975)
Conditions: read-out: Ki, norepinephrine transporter; cited from earlier work

Question: For `CC(NC(C)(C)C)C(=O)c1cccc(Cl)c1` (stereo not shown) [Bupropion], which Ki is on record?
Answer: 1400 nM
